Sequences of proteins named here, by UniProt entry; tags and fusion partners are left off.
UniProt P04626, whole entry: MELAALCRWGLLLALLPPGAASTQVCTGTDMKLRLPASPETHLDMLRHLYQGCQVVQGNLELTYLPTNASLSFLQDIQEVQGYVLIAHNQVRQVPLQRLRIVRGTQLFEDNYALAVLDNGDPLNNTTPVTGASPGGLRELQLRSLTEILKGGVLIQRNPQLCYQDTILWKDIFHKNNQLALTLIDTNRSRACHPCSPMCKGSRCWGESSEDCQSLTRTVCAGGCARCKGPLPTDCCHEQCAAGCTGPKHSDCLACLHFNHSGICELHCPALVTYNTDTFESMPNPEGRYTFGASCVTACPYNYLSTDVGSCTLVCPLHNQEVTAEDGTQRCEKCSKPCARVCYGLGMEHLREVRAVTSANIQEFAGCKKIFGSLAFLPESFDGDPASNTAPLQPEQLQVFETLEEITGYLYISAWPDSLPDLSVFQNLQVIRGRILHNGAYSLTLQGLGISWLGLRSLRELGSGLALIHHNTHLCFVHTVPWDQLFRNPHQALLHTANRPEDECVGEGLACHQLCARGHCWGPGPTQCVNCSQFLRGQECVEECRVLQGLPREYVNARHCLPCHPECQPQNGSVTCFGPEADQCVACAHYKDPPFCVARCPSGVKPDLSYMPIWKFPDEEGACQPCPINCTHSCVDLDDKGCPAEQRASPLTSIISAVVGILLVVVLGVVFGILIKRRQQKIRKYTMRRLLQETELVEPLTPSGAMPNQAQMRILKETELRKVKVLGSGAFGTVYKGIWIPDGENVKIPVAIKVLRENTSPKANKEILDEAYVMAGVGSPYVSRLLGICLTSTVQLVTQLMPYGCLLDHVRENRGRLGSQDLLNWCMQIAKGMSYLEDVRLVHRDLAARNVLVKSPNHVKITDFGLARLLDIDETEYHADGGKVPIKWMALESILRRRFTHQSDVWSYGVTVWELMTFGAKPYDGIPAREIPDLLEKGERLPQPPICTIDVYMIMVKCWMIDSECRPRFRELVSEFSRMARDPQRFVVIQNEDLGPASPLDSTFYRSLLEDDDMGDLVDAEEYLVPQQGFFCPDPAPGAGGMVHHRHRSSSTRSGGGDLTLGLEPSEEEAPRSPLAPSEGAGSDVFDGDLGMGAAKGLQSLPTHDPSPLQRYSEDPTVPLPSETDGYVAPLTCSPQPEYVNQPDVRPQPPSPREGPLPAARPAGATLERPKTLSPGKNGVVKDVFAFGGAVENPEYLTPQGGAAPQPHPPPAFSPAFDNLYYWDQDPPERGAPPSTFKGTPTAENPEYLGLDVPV

In BindingDB's records for doi:10.1074/jbc.M110.206193 (Takeda Pharmaceutical, 2011):

Target: Receptor tyrosine-protein kinase erbB-2 (Homo sapiens, UniProt P04626)
Assay: Enzyme Assay
Settings: pH 7.5
Description: The EGFR, HER2 and HER4 kinase assay were performed using radiolabeled [gamma-32P] ATP from GE Healthcare.

OCCOCn1ccc2ncnc(Nc3cnc(Oc4cccc(C(F)(F)F)c4)c(Cl)c3)c21 [SYR127063]
IC50: 11 nM
